Test results reported in PubChem BioAssay AID2016 (NMMLSC, 2009).
This is a selection; strong and weak results do not stand in their true shares. Some tests of the compounds listed are not included; inactive here does not mean inactive elsewhere. Activity calls are given as the source filed them.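 Rule for the calls: active = GFP response versus DMSO above a set limit, roughly screen mean plus 3 SD (cut at about 180% in these data); inconclusive = fewer than 70 cells counted for a yeast strain; inactive = the rest.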

test: modulators of MEP2-GFP levels in yeast, primary screen, S. cerevisiae, multiplex flow cytometry, MLPCN library (AID 2016);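 note: median GFP fluorescence of the barcode-gated MEP2-GFP cells per well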; conditions: S. cerevisiae MEP2-GFP strain, 3 h, at 10 µM, hits give high values, 100% = DMSO control level

Row | SMILES | GFP response vs DMSO
1 | CN(C)c1ccc(C(=O)NCC2(N(C)C)CCCCC2)cc1 | inactive: 111%
2 | CN(C)C1CCCC1OC(=O)C(O)(c1ccccc1)c1ccccc1 (centres undefined) | inactive: 98.9%
3 | Cc1ccccc1C(=O)NCC1(N2CCCCC2)CCCCC1 | inactive: 95.2%
4 | O=C(NCC1(N2CCCCC2)CCCCC1)c1cccc(Br)c1 | inactive: 107%
5 | CCN1CCCC(OC(=O)C2(O)c3ccccc3C=Cc3ccccc32)C1 (centres undefined) | inactive: 94.7%
6 | Cc1cc(C(=O)NCC2(N3CCCCC3)CCCCC2)ccc1[N+](=O)[O-] | active: 254% [may fluoresce violet]
7 | COc1ccc(C(=O)NCC2(N(C)C)CCCCC2)cc1 | inactive: 105%
8 | O=C(NCC1(N2CCCCC2)CCCCC1)c1cc(F)c(F)cc1Cl | inactive: 101%
9 | C=CCN1CCN(CCOC(=O)C(O)(c2ccccc2)c2ccccc2)CC1 | inactive: 100%
10 | CN1[C@@H]2CC[C@H]1CC(OC(=O)C(O)(c1ccccc1)c1ccccc1)C2 (some centres undefined) | inactive: 110%
11 | O=C(NCC1(N2CCCCC2)CCCCC1)c1cc([N+](=O)[O-])ccc1Cl | inactive: 110%
12 | Cc1ccc(C(=O)NCC2(N3CCCCC3)CCCCC2)cc1 | inactive: 108%
13 | CC(C)N1C(=O)CC2(CCN(CCOC(=O)C(O)(c3ccccc3)c3ccccc3)CC2)C1=O | inactive: 96.2%
14 | COc1cc(SC)ccc1C(=O)NCC1(N(C)C)CCCCC1 | inactive: 100%
15 | CCN(CC)CC(C)C(C)OC(=O)C(O)(c1ccccc1)c1ccccc1 (centres undefined) | inactive: 102%
16 | O=C(OC1CN2CCC1CC2)C(CO)(c1ccccc1)c1ccccc1 (centres undefined) | inactive: 106%
17 | CN(C)c1cccc(C(=O)NCC2(N(C)C)CCCCC2)c1 | inactive: 101%
18 | CC(C)Oc1ccc(C(=O)NCC2(N(C)C)CCCCC2)cc1 | inactive: 103%
19 | COc1ccc(Br)c(C(=O)NCC2(N3CCCCC3)CCCCC2)c1 | inactive: 99.6%
20 | COc1cc(C(=O)NCC2(N(C)C)CCCCC2)c([N+](=O)[O-])cc1OC | inactive: 92.6%
21 | CN(C)C1(CNC(=O)c2ccc(Br)cc2)CCCCC1 | inactive: 94.3%
22 | O=C(NCC1(N2CCCCC2)CCCCC1)c1cccc(Cl)c1 | inactive: 106%
23 | COc1ccc(Cl)cc1C(=O)NCC1(N(C)C)CCCCC1 | inactive: 104%
24 | COc1cccc(C(=O)NCC2(N3CCCCC3)CCCCC2)c1 | inactive: 93.3%
